Earlier results in paper PMC2884063.

Biological target: GFP (Aequorea victoria) [GFP: P42212]

Kd: 100 µM
Substance: GFP (from UniProt P42212)
